In data set [1] the test system is MDA453 xenografts. In words: MDA453 human breast cancer xenograft, doxorubicin study 4. In kind it is in vivo, mice. The conditions noted are these: doxorubicin HCl or liposome-entrapped 5 mg/kg iv once/week x3, anti-HER2 antibody 5 mg/kg ip twice/week x6. Here is the method: Another study, Study No. 4, was conducted using MDA453 xenografts, following the methodology set forth in Example 1.
(§1) The animals were dosed as described above, with the saline and chemotherapeutic agent administered intravenously once per week and the biological agent administered intraperitoneally twice per week.
1. BT474 and MDA453 Cells: The BT474 and MDA453 tumors were each inoculated from cultured cells in exponential growth. Cells were trypsinized, collected and washed in media. Cells were counted by hemacytometer, spun down and resuspended in media at 50 million cells per milliliter of media. Resuspended cells were chilled, then mixed with an equal volume of Matrigel. […]
(§2) Animals were weighed prior to inoculation of tumors and at least weekly thereafter. Tumors were measured twice weekly throughout the experiment, beginning 6-8 days after tumor inoculation. Tumor measurements were made by digital caliper in 3 dimensions and the volume recorded as one-half the product of these measurements. […]
(§3) Tumor volumes, measured repeatedly throughout the experiments, were used for analysis as correlated information. […] All tumor volumes were log transformed, with z=log10(y+1) where y is the calculated tumor volume, thus when y=0, z is meaningful and z=0. Log growth rates for transformed values, z, for each treatment group within each experiment were calculated and compared in linear regression. […]
Background: Xenograft models place foreign cells or tissue in a host animal.

Data set [2] relates to BT474 xenografts. Nature of the data set: BT474 human breast cancer xenograft, cisplatin studies 6-7. In kind it is in vivo, mice. Here is the method:
In Study No. 6, mice were inoculated with BT474 cells.
The animals were dosed as described in Example 2, with the saline and chemotherapeutic agent administered intravenously once per week and the biological agent administered intraperitoneally twice per week.
In Study No. 7, the dosage of the antibody was reduced to better differentiate between the treatment regimens.
Two separate HER2-overexpressing human breast cancer xenograft models were utilized: BT474 and MDA453. The BT474 or MDA453 tumors were inoculated from cultured cells in exponential growth. Cells were trypsinized, collected and washed in media. Cells were counted by hemacytometer, spun down and resuspended in media at 50 million cells per milliliter of media (5 million cells per 0.1 ml injection volume). Resuspended cells were chilled, then mixed in an equal volume of Matrigel. Cells (0.2 ml, continuously mixed) were drawn into individual, chilled syringes for subcutaneous injection into the dorsum of each animal.
Immune-deficient female mice (NCR.nu/nu, Taconic Farms, Germantown, N.Y.) were obtained from the vendor and acclimated for at least 7 days prior to initiation of experiments. Animals were housed in microisolator caging (Thoren Caging, Hazelton, Pa.) with ad lib gamma irradiated rodent food and autoclaved, acidified water. Lights were set for 12:12 light: dark cycle. All animals received a 0.72 mg estradiol 17β sustained release pellet (Innovative Research of America, Sarasota, Fla.) by subcutaneous injection 24 hours prior to tumor inoculation. Animals were randomized into treatment groups prior to inoculation of tumors.
(§4) Animals were weighed prior to inoculation of tumors and at least weekly thereafter. Tumors were measured twice weekly throughout the experiment, beginning 6-8 days after tumor inoculation. Tumor measurements were made by digital caliper in 3 dimensions and the volume recorded as one half the product of these measurements. Any animal observed to have 15% or greater weight loss from the initial starting weight was immediately euthanized. Any animal observed to have greater than 4,000 mm^3 tumor volume was immediately euthanized.
Animals were divided into 6 treatment groups (12 animals each) prior to inoculation of tumors in all experiments.
Saline, cisplatin and PL-cisplatin were administered by intravenous injection; Herceptin was administered by intraperitoneal injection. All treatments were administered for 3 weekly cycles. Treatment was initiated when average tumor volume was 75 mm^3 (approximately 6-10 days after inoculation). Tumor sizes within each treatment group were compared to confirm similar initial size prior to initiation of treatment.
Tumor volumes, measured repeatedly throughout experiments, were used for analysis as correlated information. Since tumor growth over time after treatment was of interest, repeated measurement analysis for each treatment group was performed. Growth rates (slope) for each treatment group within each experiment were calculated and compared in linear regression. If the growth rate was positive for a certain treatment, tumors were still growing even after receiving the drug; if the growth rate is negative, tumors began to shrink after receiving the drug; if the growth rate is 0, tumors stop growing after receiving the drug. A p-value of 0.05 or less is considered significant.
Tumor size at specific times after treatment was compared between treated and control groups. Tumor growth inhibition was reported as % T/C which is the tumor size of each treated group divided by the control group, expressed as a percentage.

The next data set has as its system B585 xenografts. In words: B585 primary human breast cancer xenograft, doxorubicin study 5. In kind it is in vivo, mice. Here is the method:
The primary human breast cancer B585 express high levels of HER2. In Study No. 5, mice were inoculated with passaged B585 tumor tissue.
as §1
2. B585 Human Cells: The B585 primary human breast xenografts were inoculated from tumor tissue harvested from tumor bearing animals. Tumors were minced with scissors and resuspended in media. Resuspended cells were chilled, then mixed with an equal volume of Matrigel. […]
as §2, §3

Data set [3] relates to BT474 xenografts. Nature of the data set: BT474 human breast cancer xenograft, doxorubicin studies 1-3. In kind it is in vivo, mice. Here is the method: In study numbers 1, 2 and 3 immune-deficient mice were inoculated by subcutaneous injection into the dorsum with 5 million BT474 cells in 0.1 mL added to an equal volume of Matrigel for an inoculation volume of 0.2 mL. The inoculated mice were divided into six treatment groups of 12 mice each, prior to inoculation. Treatment was initiated when the average tumor volume was 100 mm^3, which occurred approximately 7-10 days after inoculation.
Saline, doxorubicin and liposome-entrapped doxorubicin were administered by intravenous injection for three treatments. The anti-HER2 antibody, Herceptin, was administered by intraperitoneal injection twice weekly for a total of six treatments. The animals were monitored daily and the tumors were measured in three dimensions twice weekly over the study period.
1. BT474 and MDA453 Cells: The BT474 and MDA453 tumors were each inoculated from cultured cells in exponential growth. Cells were trypsinized, collected and washed in media. Cells were counted by hemacytometer, spun down and resuspended in media at 50 million cells per milliliter of media. Resuspended cells were chilled, then mixed with an equal volume of Matrigel. Cells (5 million cells per 0.2 ml injection volume, continuously mixed) were drawn into individual, chilled syringes for subcutaneous injection into the dorsum of each animal.
Immune deficient mice were used in all experiments. Study numbers 1, 2, 3 and 4 were conducted in homozygous nude female mice. Study number 5 was conducted in homozygous ICR scid female mice. All mice were obtained at the age of four weeks and acclimated for a minimum of 1 week prior to tumor inoculation. All mice were ear tagged for individual identification during acclimation. For each study, 75 mice were inoculated with tumors to supply 72 study animals at treatment.
as §4, with “recorded as one-half the product” for “recorded as one half the product”, “was immediately euthanized by inhalation of 100% carbon dioxide. Any animal” for “was immediately euthanized. Any animal”, “was immediately euthanized by inhalation of 100% carbon dioxide. […]” for “was immediately euthanized.”
as §3

In data set [4] the test system is MDA453 xenografts. Nature of the data set: MDA453 human breast cancer xenograft, cisplatin study 8. In kind it is in vivo, mice. The method, then: Another study was performed using the MDA453 xenograft model. Immune deficient mice were inoculated with MDA453 tumor cells-as described in Example 2.
Following the dosing regimen described above, the therapies were administered to the test animals. Tumor volume over the course of the experiment is shown in FIGS. 9A-9B, where the large arrowheads along the x-axis indicate administration of drug plus antibody and the smaller arrows indicate administration of antibody only.
Two separate HER2-overexpressing human breast cancer xenograft models were utilized: BT474 and MDA453. The BT474 or MDA453 tumors were inoculated from cultured cells in exponential growth. […] Cells were counted by hemacytometer, spun down and resuspended in media at 50 million cells per milliliter of media (5 million cells per 0.1 ml injection volume). […]
Animals were weighed prior to inoculation of tumors and at least weekly thereafter. Tumors were measured twice weekly throughout the experiment, beginning 6-8 days after tumor inoculation. Tumor measurements were made by digital caliper in 3 dimensions and the volume recorded as one half the product of these measurements. […]
Tumor volumes, measured repeatedly throughout experiments, were used for analysis as correlated information. […] Growth rates (slope) for each treatment group within each experiment were calculated and compared in linear regression. […]

For data set [5] the following is noted: doses ranging from 5 mg/m^2 to 400 mg/m^2; cited from earlier work.
The subject of another data set is A431 tumor. In words: A431 tumor xenograft implanted subcutaneously in nude mice, tumor volume. In kind it is in vivo. The text has this: In studies performed in support of the invention, a xenograft of the A431 tumor was implanted subcutaneously in nude mice. Six days after tumor implantation, the mice were randomly grouped for treatment with one of the following regimens: free doxorubicin, an anti-EGFR antibody (C225), liposomal-entrapped doxorubicin; free doxorubicin plus the anti-EGFR antibody, or liposome-entrapped doxorubicin plus the anti-EGFR antibody. The liposomes included a vesicle-forming lipid derivatized with the hydrophilic polymer polyethyleneglycol.
The results are shown in FIG. 1, where the tumor volume, in mm^3, is shown as a function of time following tumor implantation, in days. […] The mice treated with the combined treatments of the therapeutic agent and the biological agent fared best.
Table 1 tabulates the size of the tumor at 40 and 60 days following tumor implantation.

We go through 2 substances from US20050084524A1, “Method for potentiating activity of a chemotherapeutic drug” (ALZA Corporation, priority 1998, published 2005).

“Also recorded” adds a separate entry of the source. Marks after values point to notes of the source that are not given here.

As to “Herceptin: humanized anti-p185HER2 monoclonal antibody, rhuMAb HER2 (Herceptin, Genentech)”, the “Log Growth Rate, Study No. 4” value in the data set on MDA453 xenografts [1] is reported as −0.030^c,d. Besides, the “Size of treated tumors as a function of size of control tumors, % T/C, Study No. 6” value with BT474 xenografts [2] (Day 44, BT474, cisplatin 6 mg/kg, antibody 3 mg/kg, control saline) was 1.9 % T/C. The “Size of treated tumors as a function of size of control tumors, % T/C, Study No. 7” value in the data set on BT474 xenografts [2] (Day 49, BT474, cisplatin 4 mg/kg, antibody 0.5 mg/kg, control saline) was determined as 35.5 % T/C. Besides, the “tumor volume over treatment period (FIGS. 7A-7B), in words” value with BT474 xenografts [2] (Study No. 6, BT474, cisplatin 6 mg/kg, antibody 3 mg/kg) is “little to no tumor growth”. In addition, in the data set on BT474 xenografts [2] (Study No. 7, BT474, cisplatin 4 mg/kg, antibody 0.5 mg/kg), the “tumor volume over treatment period (FIG. 8), in words” value is “continual tumor growth”. Further, the “Growth rate of tumors (slope), Study No. 7 BT474” value in the data set with BT474 xenografts [2] (cisplatin or liposome-entrapped cisplatin 4 mg/kg iv once/week x3, anti-HER2 antibody 0.5 mg/kg ip twice/week x6) is 10.78^c,d. Further, the “Growth rate of tumors (slope), Study No. 6 BT474” value with BT474 xenografts [2] (cisplatin or liposome-entrapped cisplatin 6 mg/kg iv once/week x3, anti-HER2 antibody 3 mg/kg ip twice/week x6) was −0.34. In addition, the “Log Growth Rate, Study No. 5” value in the data set with B585 xenografts (B585, doxorubicin HCl or liposome-entrapped 4 mg/kg iv once/week x3, anti-HER2 antibody 3 mg/kg ip twice/week x6) is listed as 0.061^b,c. In addition, the “tumor volume over treatment period (FIGS. 6A-6B), in words” value in the data set with B585 xenografts (Study No. 5, B585, doxorubicin 4 mg/kg, liposomal 4 mg/kg, antibody 3 mg/kg) was “continuous tumor growth”. Also, the “Log Growth Rate, Study No. 1” value in the data set with BT474 xenografts [3] (BT474, doxorubicin HCl 4 mg/kg or liposome-entrapped 3 mg/kg iv once/week x3, anti-HER2 antibody 10 mg/kg ip twice/week x6) was −0.061^b. Further, the “Log Growth Rate, Study No. 3” value in the data set on BT474 xenografts [3] (BT474, doxorubicin HCl or liposome-entrapped 3 mg/kg iv once/week x3, anti-HER2 antibody 1 mg/kg ip twice/week x6) is recorded as −0.020^c,d. Besides, the “Log Growth Rate, Study No. 2” value in the data set on BT474 xenografts [3] (BT474, doxorubicin HCl or liposome-entrapped 5 mg/kg iv once/week x3, anti-HER2 antibody 3 mg/kg ip twice/week x6) is reported as −0.019^c,d,e. For the same substance, in the data set on BT474 xenografts [3] (Study No. 1, BT474, doxorubicin 4 mg/kg, liposomal 3 mg/kg, antibody 10 mg/kg, listed as anti-HER2 antibody), the “tumor volume over treatment period (FIGS. 2A-2B), in words” value is “decrease in tumor volume; also recorded: eliminates tumor growth”. The “Size of treated tumors as a function of size of control tumors, % T/C, Study No. 8” value with MDA453 xenografts [4] (Day 33, MDA453, cisplatin 4 mg/kg, antibody 1 mg/kg, control saline) amounted to 0.1 % T/C. The “Growth rate of tumors (slope), Study No. 8 MDA453” value in the data set on MDA453 xenografts [4] (cisplatin or liposome-entrapped cisplatin 4 mg/kg iv once/week x3, anti-HER2 antibody 1 mg/kg ip twice/week x6) is given as −1.14.

Turning to “anti-EGFR antibody: EGFR antagonist C225, developed by ImClone Systems, designed to block the EGF receptor”, the “toxicity, in words” value in data set [5] was “not toxicity”. Further, in the data set with A431 tumor (40 days following tumor implantation), the “Tumor Volume at 40 days” value is 750 mm^3. Also, in the data set on A431 tumor (60 days following tumor implantation), the “Tumor Volume at 60 days” value is 2500 mm^3. The “tumor volume as a function of time (FIG. 1), in words” value in the data set on A431 tumor (treatment from day 6) is on record as “still an increase in tumor size but to a lesser extent”.
